# From patent US12285437B2 (The Research Foundation for The State University of new York, priority 2019, dated 2025)
# Like-named read-outs stand apart in the source and are kept apart here.
# Columns and labels:
# [1] = system: MDA-MB-231 human breast cancer cells
# [2] = 25° C.
# [3] = system: SKOV3 human ovarian cancer cells; details: FIG. 9A, SKOV3, 2.5 hr, 10 μM
substance,measurement,setting,value
Doxorubicin Disubstituted Maleamic Acid Glutathione Conjugate [Dox-DMA-GSH 8],Cell Viability Avg,"[1]; FIG. 7B, MDA-MB231, 2 hr, 4 μM, pH 6.3-6.4",53%
same,Cell Viability Avg,"[1]; FIG. 7B, MDA-MB231, 2 hr, 4 μM, pH 7.6-7.7",68%
same,Cell Viability Avg,"[1]; FIG. 7B, MDA-MB231, 2 hr, 6 μM, pH 6.3-6.4",24%
same,Cell Viability Avg,"[1]; FIG. 7B, MDA-MB231, 2 hr, 6 μM, pH 7.6-7.7",68%
same,Cell Viability Avg,"[1]; FIG. 7B, MDA-MB231, 2 hr, 8 μM, pH 6.3-6.4",13%
same,Cell Viability Avg,"[1]; FIG. 7B, MDA-MB231, 2 hr, 8 μM, pH 7.6-7.7",68%
same,Cell Viability Avg,"[1]; FIG. 7F, MDA-MB231, 2.5 hr, 6 μM, pH 6.3-6.4",27%
same,Cell Viability Avg,"[1]; FIG. 7F, MDA-MB231, 2.5 hr, 6 μM, pH 6.5",32%
same,Cell Viability Avg,"[1]; FIG. 7F, MDA-MB231, 2.5 hr, 6 μM, pH 6.6-6.7",53%
same,Cell Viability Avg,"[1]; FIG. 7F, MDA-MB231, 2.5 hr, 6 μM, pH 6.9-7.0",56%
same,Cell Viability Avg,"[1]; FIG. 7F, MDA-MB231, 2.5 hr, 6 μM, pH 7.2-7.3",66%
same,Cell Viability Avg,"[1]; FIG. 7F, MDA-MB231, 2.5 hr, 6 μM, pH 7.5-7.7",84%
same,less cytotoxic than the free drug (3 μM),"[1]; MDA-MB231, 2-3 h, 6-8 μM prodrug, pHe 7.5-7.6",2-4 ×
same,Mol. % of DMA 8,"[2]; pH 6.0, 0.1 hr",67 Mol. %
same,Mol. % of DMI 7 formed,"[2]; pH 6.0, 0.1 hr",12 Mol. %
same,Mol. % of Decomposition Products,"[2]; pH 6.0, 0.1 hr",5 Mol. %
same,Mol. % of Dox Released,"[2]; pH 6.0, 0.1 hr",16 Mol. %
same,Mol. % of DMA 8,"[2]; pH 6.0, 2 hr",28 Mol. %
same,Mol. % of DMI 7 formed,"[2]; pH 6.0, 2 hr",10 Mol. %
same,Mol. % of Decomposition Products,"[2]; pH 6.0, 2 hr",5 Mol. %
same,Mol. % of Dox Released,"[2]; pH 6.0, 2 hr",57 Mol. %
same,Mol. % of DMA 8,"[2]; pH 6.0, 5 hr",12 Mol. %
same,Mol. % of DMI 7 formed,"[2]; pH 6.0, 5 hr",10 Mol. %
same,Mol. % of Decomposition Products,"[2]; pH 6.0, 5 hr",10 Mol. %
same,Mol. % of Dox Released,"[2]; pH 6.0, 5 hr",68 Mol. %
same,Mol. % of DMA 8,"[2]; pH 6.0, 24 hr",0 Mol. %
same,Mol. % of DMI 7 formed,"[2]; pH 6.0, 24 hr",10 Mol. %
same,Mol. % of Decomposition Products,"[2]; pH 6.0, 24 hr",10 Mol. %
same,Mol. % of Dox Released,"[2]; pH 6.0, 24 hr",80 Mol. %
same,Mol. % of DMA 8,"[2]; pH 6.3, 0.1 hr",74 Mol. %
same,Mol. % of DMI 7 formed,"[2]; pH 6.3, 0.1 hr",9 Mol. %
same,Mol. % of Decomposition Products,"[2]; pH 6.3, 0.1 hr",8 Mol. %
same,Mol. % of Dox Released,"[2]; pH 6.3, 0.1 hr",9 Mol. %
same,Mol. % of DMA 8,"[2]; pH 6.3, 3.5 hr",36 Mol. %
same,Mol. % of DMI 7 formed,"[2]; pH 6.3, 3.5 hr",9 Mol. %
same,Mol. % of Decomposition Products,"[2]; pH 6.3, 3.5 hr",8 Mol. %
same,Mol. % of Dox Released,"[2]; pH 6.3, 3.5 hr",47 Mol. %
same,Mol. % of DMA 8,"[2]; pH 6.3, 6 hr",23 Mol. %
same,Mol. % of DMI 7 formed,"[2]; pH 6.3, 6 hr",8 Mol. %
same,Mol. % of Decomposition Products,"[2]; pH 6.3, 6 hr",10 Mol. %
same,Mol. % of Dox Released,"[2]; pH 6.3, 6 hr",59 Mol. %
same,Mol. % of DMA 8,"[2]; pH 6.3, 24 hr",4 Mol. %
same,Mol. % of DMI 7 formed,"[2]; pH 6.3, 24 hr",16 Mol. %
same,Mol. % of Decomposition Products,"[2]; pH 6.3, 24 hr",12 Mol. %
same,Mol. % of Dox Released,"[2]; pH 6.3, 24 hr",68 Mol. %
same,Mol. % of DMA 8,"[2]; pH 6.5, 1 hr",69 Mol. %
same,Mol. % of DMI 7 formed,"[2]; pH 6.5, 1 hr",7 Mol. %
same,Mol. % of Decomposition Products,"[2]; pH 6.5, 1 hr",14 Mol. %
same,Mol. % of Dox Released,"[2]; pH 6.5, 1 hr",10 Mol. %
same,Mol. % of DMA 8,"[2]; pH 6.5, 6 hr",32 Mol. %
same,Mol. % of DMI 7 formed,"[2]; pH 6.5, 6 hr",11 Mol. %
same,Mol. % of Decomposition Products,"[2]; pH 6.5, 6 hr",14 Mol. %
same,Mol. % of Dox Released,"[2]; pH 6.5, 6 hr",43 Mol. %
same,Mol. % of DMA 8,"[2]; pH 6.5, 9 hr",24 Mol. %
same,Mol. % of DMI 7 formed,"[2]; pH 6.5, 9 hr",11 Mol. %
same,Mol. % of Decomposition Products,"[2]; pH 6.5, 9 hr",15 Mol. %
same,Mol. % of Dox Released,"[2]; pH 6.5, 9 hr",50 Mol. %
same,Mol. % of DMA 8,"[2]; pH 6.5, 24 hr",5 Mol. %
same,Mol. % of DMI 7 formed,"[2]; pH 6.5, 24 hr",13 Mol. %
same,Mol. % of Decomposition Products,"[2]; pH 6.5, 24 hr",15 Mol. %
same,Mol. % of Dox Released,"[2]; pH 6.5, 24 hr",67 Mol. %
same,Mol. % of DMA 8,"[2]; pH 6.8, 0.2 hr",79 Mol. %
same,Mol. % of DMI 7 formed,"[2]; pH 6.8, 0.2 hr",8 Mol. %
same,Mol. % of Decomposition Products,"[2]; pH 6.8, 0.2 hr",9 Mol. %
same,Mol. % of Dox Released,"[2]; pH 6.8, 0.2 hr",4 Mol. %
same,Mol. % of DMA 8,"[2]; pH 6.8, 15 hr",31 Mol. %
same,Mol. % of DMI 7 formed,"[2]; pH 6.8, 15 hr",18 Mol. %
same,Mol. % of Decomposition Products,"[2]; pH 6.8, 15 hr",9 Mol. %
same,Mol. % of Dox Released,"[2]; pH 6.8, 15 hr",42 Mol. %
same,Mol. % of DMA 8,"[2]; pH 6.8, 20 hr",26 Mol. %
same,Mol. % of DMI 7 formed,"[2]; pH 6.8, 20 hr",21 Mol. %
same,Mol. % of Decomposition Products,"[2]; pH 6.8, 20 hr",10 Mol. %
same,Mol. % of Dox Released,"[2]; pH 6.8, 20 hr",43 Mol. %
same,Mol. % of DMA 8,"[2]; pH 6.8, 22 hr",22 Mol. %
same,Mol. % of DMI 7 formed,"[2]; pH 6.8, 22 hr",21 Mol. %
same,Mol. % of Decomposition Products,"[2]; pH 6.8, 22 hr",10 Mol. %
same,Mol. % of Dox Released,"[2]; pH 6.8, 22 hr",47 Mol. %
same,Mol. % of DMA 8,"[2]; pH 6.8, 24 hr",16 Mol. %
same,Mol. % of DMI 7 formed,"[2]; pH 6.8, 24 hr",25 Mol. %
same,Mol. % of Decomposition Products,"[2]; pH 6.8, 24 hr",10 Mol. %
same,Mol. % of Dox Released,"[2]; pH 6.8, 24 hr",49 Mol. %
same,Mol. % of DMA 8,"[2]; pH 6.8, 48 hr",6 Mol. %
same,Mol. % of DMI 7 formed,"[2]; pH 6.8, 48 hr",22 Mol. %
same,Mol. % of Decomposition Products,"[2]; pH 6.8, 48 hr",18 Mol. %
same,Mol. % of Dox Released,"[2]; pH 6.8, 48 hr",54 Mol. %
same,Mol. % of DMA 8,"[2]; pH 7.0, 0.5 hr",75 Mol. %
same,Mol. % of DMI 7 formed,"[2]; pH 7.0, 0.5 hr",7 Mol. %
same,Mol. % of Decomposition Products,"[2]; pH 7.0, 0.5 hr",10 Mol. %
same,Mol. % of Dox Released,"[2]; pH 7.0, 0.5 hr",8 Mol. %
same,Mol. % of DMA 8,"[2]; pH 7.0, 4 hr",71 Mol. %
same,Mol. % of DMI 7 formed,"[2]; pH 7.0, 4 hr",11 Mol. %
same,Mol. % of Decomposition Products,"[2]; pH 7.0, 4 hr",10 Mol. %
same,Mol. % of Dox Released,"[2]; pH 7.0, 4 hr",8 Mol. %
same,Mol. % of DMA 8,"[2]; pH 7.0, 21 hr",31 Mol. %
same,Mol. % of DMI 7 formed,"[2]; pH 7.0, 21 hr",24 Mol. %
same,Mol. % of Decomposition Products,"[2]; pH 7.0, 21 hr",11 Mol. %
same,Mol. % of Dox Released,"[2]; pH 7.0, 21 hr",34 Mol. %
same,Mol. % of DMA 8,"[2]; pH 7.0, 25 hr",26 Mol. %
same,Mol. % of DMI 7 formed,"[2]; pH 7.0, 25 hr",24 Mol. %
same,Mol. % of Decomposition Products,"[2]; pH 7.0, 25 hr",15 Mol. %
same,Mol. % of Dox Released,"[2]; pH 7.0, 25 hr",35 Mol. %
same,Mol. % of DMA 8,"[2]; pH 7.0, 30 hr",22 Mol. %
same,Mol. % of DMI 7 formed,"[2]; pH 7.0, 30 hr",25 Mol. %
same,Mol. % of Decomposition Products,"[2]; pH 7.0, 30 hr",15 Mol. %
same,Mol. % of Dox Released,"[2]; pH 7.0, 30 hr",38 Mol. %
same,Mol. % of DMA 8,"[2]; pH 7.0, 48 hr",12 Mol. %
same,Mol. % of DMI 7 formed,"[2]; pH 7.0, 48 hr",30 Mol. %
same,Mol. % of Decomposition Products,"[2]; pH 7.0, 48 hr",15 Mol. %
same,Mol. % of Dox Released,"[2]; pH 7.0, 48 hr",43 Mol. %
same,Mol. % of DMA 8,"[2]; pH 7.4, 0 hr",94 Mol. %
same,Mol. % of DMI 7 formed,"[2]; pH 7.4, 0 hr",0 Mol. %
same,Mol. % of Decomposition Products,"[2]; pH 7.4, 0 hr",6 Mol. %
same,Mol. % of Dox Released,"[2]; pH 7.4, 0 hr",0 Mol. %
same,Mol. % of DMA 8,"[2]; pH 7.4, 24 hr",45 Mol. %
same,Mol. % of DMI 7 formed,"[2]; pH 7.4, 24 hr",23 Mol. %
same,Mol. % of Decomposition Products,"[2]; pH 7.4, 24 hr",13 Mol. %
same,Mol. % of Dox Released,"[2]; pH 7.4, 24 hr",19 Mol. %
same,Mol. % of DMA 8,"[2]; pH 7.4, 44 hr",29 Mol. %
same,Mol. % of DMI 7 formed,"[2]; pH 7.4, 44 hr",29 Mol. %
same,Mol. % of Decomposition Products,"[2]; pH 7.4, 44 hr",14 Mol. %
same,Mol. % of Dox Released,"[2]; pH 7.4, 44 hr",28 Mol. %
same,Mol. % of DMA 8,"[2]; pH 7.4, 69 hr",18 Mol. %
same,Mol. % of DMI 7 formed,"[2]; pH 7.4, 69 hr",32 Mol. %
same,Mol. % of Decomposition Products,"[2]; pH 7.4, 69 hr",23 Mol. %
same,Mol. % of Dox Released,"[2]; pH 7.4, 69 hr",27 Mol. %
same,Mol. % of DMA 8,"[2]; pH 7.4, 94 hr",16 Mol. %
same,Mol. % of DMI 7 formed,"[2]; pH 7.4, 94 hr",30 Mol. %
same,Mol. % of Decomposition Products,"[2]; pH 7.4, 94 hr",23 Mol. %
same,Mol. % of Dox Released,"[2]; pH 7.4, 94 hr",31 Mol. %
same,Mol. % of DMA 8,"[2]; pH 7.4, 123 hr",11 Mol. %
same,Mol. % of DMI 7 formed,"[2]; pH 7.4, 123 hr",27 Mol. %
same,Mol. % of Decomposition Products,"[2]; pH 7.4, 123 hr",39 Mol. %
same,Mol. % of Dox Released,"[2]; pH 7.4, 123 hr",23 Mol. %
same,Mol. % of DMA 8,"[2]; pH 7.4, 144 hr",10 Mol. %
same,Mol. % of DMI 7 formed,"[2]; pH 7.4, 144 hr",27 Mol. %
same,Mol. % of Decomposition Products,"[2]; pH 7.4, 144 hr",40 Mol. %
same,Mol. % of Dox Released,"[2]; pH 7.4, 144 hr",23 Mol. %
same,Cell Viability Avg,[3]; pH 6.3-6.5,43%
same,Cell Viability Avg,[3]; pH 7.5-7.6,53%
